## AlphaSeq binding of Ab-95 light chain variants to a spike HR2 peptide

Data: MIT Lincoln Laboratory AlphaSeq set, Engelhart et al. 2022, doi:10.1038/s41597-022-01779-4, as distributed in FLAb.

All variants were tested on one target, the spike HR2 peptide PDVDLGDISGINAS (SARS-CoV-2).

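Library AAYL52 holds single substitutions and randomly drawn double and triple substitutions in the CDRs. In AlphaSeq, yeast of one mating type display the scFv and yeast of the other type display the target. Pairs that bind mate more often; barcode pairs of the diploids are counted by sequencing. A regression on co-assayed BCL2-family reference pairs converts the normalised counts of each replicate to an apparent Kd. There are three technical replicates.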

Ab-95 is the parent antibody, in scFv form: VH, then a 15-residue (Gly4Ser)3 linker, then VL. The heavy chain is unchanged in all variants.
VH: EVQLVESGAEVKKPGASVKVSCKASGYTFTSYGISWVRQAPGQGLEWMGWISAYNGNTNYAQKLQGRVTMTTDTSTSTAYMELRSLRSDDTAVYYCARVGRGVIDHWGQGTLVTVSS
VL: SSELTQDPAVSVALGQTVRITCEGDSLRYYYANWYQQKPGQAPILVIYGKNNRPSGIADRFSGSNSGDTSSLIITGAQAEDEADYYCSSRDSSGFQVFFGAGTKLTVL

Changes read parent residue, position, new residue, counted from the first residue of the VL shown.
Numbers give log10(Kd / nM), so 0 is 1 nM and 3 is 1 µM. Smaller is tighter.
Averages over replicates are reported, and they cover detected replicates only.
"nd" means that the variant was in the library but no mating with the target was seen in that replicate; the authors take this as a sign of poor binding, and no number exists.
Nonspecific signal, from three strains lacking the peptide, appeared in 28% of pairings of library AAYL52, centred on 3.91 (5% of these signals below 2.90); values are not corrected for it. Also given: how often the same scFv was detected with the empty control strains, with their mean in brackets.
For reference, the parent read 2.31 as the reference entry and 2.25 as a member of this library.

{"changes": "S26T/R28E/S89D", "replicates, log10 nM": "nd nd 2.50", "log10 Kd (nM), mean": "2.50", "control signals": "0 of 9"}
{"changes": "Y30Q/Y31N/S92A", "replicates, log10 nM": "0.53 0.48 -0.16", "log10 Kd (nM), mean": "0.28", "control signals": "2 of 9 (5.41)"}
{"changes": "Y31L/G49R/N51V", "replicates, log10 nM": "nd nd 3.11", "log10 Kd (nM), mean": "3.11", "control signals": "1 of 9 (3.09)"}
{"changes": "R53W/S89A/D91N", "replicates, log10 nM": "nd nd nd", "log10 Kd (nM), mean": "nd", "control signals": "3 of 9 (3.91)"}
{"changes": "N33G/K50I/F98E", "replicates, log10 nM": "3.50 nd nd", "log10 Kd (nM), mean": "3.50", "control signals": "3 of 9 (4.27)"}
{"changes": "L27M/D91N", "replicates, log10 nM": "2.42 2.79 2.50", "log10 Kd (nM), mean": "2.57", "control signals": "2 of 9 (3.98)"}
{"changes": "R53I/P54C/S93D", "replicates, log10 nM": "5.57 4.12 3.69", "log10 Kd (nM), mean": "4.46", "control signals": "4 of 9 (3.74)"}
{"changes": "Y30V/P54K/F95I", "replicates, log10 nM": "nd 3.48 nd", "log10 Kd (nM), mean": "3.48", "control signals": "1 of 9 (5.76)"}
{"changes": "R28L/Y31E/S88T", "replicates, log10 nM": "2.12 2.04 1.77", "log10 Kd (nM), mean": "1.98", "control signals": "6 of 9 (4.20)"}
{"changes": "Y30R/R90E/S92K", "replicates, log10 nM": "2.92 2.98 1.97", "log10 Kd (nM), mean": "2.63", "control signals": "4 of 9 (3.77)"}
{"changes": "Y31H/K50A/F98D", "replicates, log10 nM": "3.06 2.59 3.04", "log10 Kd (nM), mean": "2.90", "control signals": "3 of 9 (4.04)"}
{"changes": "Y29W/S55C/R90Y", "replicates, log10 nM": "4.21 3.50 3.07", "log10 Kd (nM), mean": "3.59", "control signals": "4 of 9 (3.89)"}
{"changes": "E23G/Y29T/F95Y", "replicates, log10 nM": "1.93 1.69 1.65", "log10 Kd (nM), mean": "1.76", "control signals": "1 of 9 (4.31)"}
{"changes": "L27H/S88T/Q96M", "replicates, log10 nM": "nd nd nd", "log10 Kd (nM), mean": "nd", "control signals": "3 of 9 (3.69)"}
{"changes": "G49M/N51C/P54S", "replicates, log10 nM": "nd nd nd", "log10 Kd (nM), mean": "nd", "control signals": "0 of 9"}
{"changes": "Y30I/A32Y/V97D", "replicates, log10 nM": "nd 4.83 nd", "log10 Kd (nM), mean": "4.83", "control signals": "0 of 9"}
{"changes": "E23R/A32E/Q96H", "replicates, log10 nM": "nd 3.14 nd", "log10 Kd (nM), mean": "3.14", "control signals": "3 of 9 (3.63)"}
{"changes": "L27I/N33Q/S89K", "replicates, log10 nM": "nd 3.32 nd", "log10 Kd (nM), mean": "3.32", "control signals": "2 of 9 (3.82)"}
{"changes": "D25S/S55D/S88G", "replicates, log10 nM": "2.24 2.40 2.26", "log10 Kd (nM), mean": "2.30", "control signals": "1 of 9 (4.75)"}
{"changes": "E23C/N52W/F98M", "replicates, log10 nM": "3.18 3.32 3.21", "log10 Kd (nM), mean": "3.23", "control signals": "1 of 9 (3.35)"}
{"changes": "N52W/S55A/F98D", "replicates, log10 nM": "2.99 3.49 3.12", "log10 Kd (nM), mean": "3.20", "control signals": "2 of 9 (2.95)"}
{"changes": "Y29V/N52S/R90C", "replicates, log10 nM": "3.32 nd nd", "log10 Kd (nM), mean": "3.32", "control signals": "2 of 9 (4.15)"}
{"changes": "P54Q/G94I/Q96D", "replicates, log10 nM": "3.22 2.76 nd", "log10 Kd (nM), mean": "2.99", "control signals": "3 of 9 (3.95)"}

Excerpt, the final 4 entries:

changes	replicates, log10 nM	log10 Kd (nM), mean	control signals
E23C/N52W/F98M	3.18 3.32 3.21	3.23	1 of 9 (3.35)
N52W/S55A/F98D	2.99 3.49 3.12	3.20	2 of 9 (2.95)
Y29V/N52S/R90C	3.32 nd nd	3.32	2 of 9 (4.15)
P54Q/G94I/Q96D	3.22 2.76 nd	2.99	3 of 9 (3.95)